The values that follow come from published antibiotic growth screens (doi:10.1038/s41589-023-01349-8).

Each structure is given as a SMILES string. The list shows a part of the results.

The subject of this test is A. baumannii ATCC 17978. Description: relative growth (fraction of control); higher = less inhibition. The conditions noted are these: 50 µM.
The compound `CCCCC/C=C\C/C=C\C/C=C\C/C=C\CCCC(=O)O` yielded a relative growth of 1.2.
In the case of `O=S(=O)(NCC[C@H]1CC[C@@H](NS(=O)(=O)c2ccccc2Cl)[C@@H](CO)O1)c1ccc(F)cc1`, the relative growth was 1.12.
For `Nc1ccc(OCc2ccccc2)cc1` the value was 0.677; for `NCC[C@H]1CC[C@@H](NC(=O)NC2CCCCC2)[C@@H](CO)O1`, 0.916.
To `Nc1ccccc1C(=O)CC(N)C(=O)O` (stereo unspecified) belongs 1.09.
The compound `CS(=O)(=O)N1CCN(c2ccccc2)CC1` registered a relative growth of 0.871.
Compound `COCCOC(=O)N1C(=O)[C@@]2(c3cc(C#CC4=CCCCC4)ccc31)[C@H](c1ccc(OCCO)cc1)N1[C@H](c3ccccc3)[C@H](c3ccccc3)OC(=O)[C@H]1[C@@H]2C(=O)N1CCc2cc(OC)c(OC)cc2C1` displayed a relative growth of 0.989.
For the compound `C=CC[C@@H](CC(=O)N(CCO)Cc1ccccc1)C(=O)N[C@H](COC(=O)[C@H](CC=C)NC(=O)OCC1c2ccccc2-c2ccccc21)C(C)(C)C`, the relative growth was found to be 0.775.
For the compound `O=C([O-])/C=C/C(=O)[O-].[Fe+2]`, the relative growth is 0.962.
In the case of `CCNC(=O)C[C@H]1CC[C@H](NC(=O)C2CC2)[C@H](CO)O1`, the relative growth was 0.849.
`Cc1n[nH]c(N/N=C/c2ccccn2)nc1=O` returned a relative growth of 0.702.
For `Cn1cnc(S(=O)(=O)N[C@H]2CC[C@H](CC(=O)NCC3CC3)O[C@H]2CO)c1` the value was 1.1; for `NNC(=O)c1cccc(Cn2cccn2)c1`, 1.11; for `C=CCOC(=O)[C@H]1[C@@H]2C(=O)O[C@@H](c3ccccc3)[C@@H](c3ccccc3)N2[C@@H](c2ccc(OCCOC(=O)NCCCCCC(=O)NO)cc2)[C@@]12C(=O)Nc1ccc(I)cc12`, 0.82.
`CC(C)NC(=O)NCC[C@H]1CC[C@@H](NC(=O)CN(C)C)[C@@H](CO)O1` registered a relative growth of 1.03.
For `COC(=O)C1=CO[C@@H](O[C@@H]2O[C@H](CO)[C@@H](O)[C@H](O)[C@H]2O)[C@@H]2[C@@H](C)[C@@H](OC(=O)/C=C/c3ccc(O)cc3)[C@@H](O)[C@H]12` the value was 1.08; for `CO[C@@H](CN(C)C(=O)c1ccc2c(c1)OCO2)[C@H](C)CN([C@@H](C)CO)S(=O)(=O)c1ccc(Cl)cc1`, 1; for `CC1(C)CC[C@]2(C)CC[C@]3(C)C(=CCC4[C@@]5(C)CC[C@H](O)C(C)(C)C5CC[C@]43C)C2C1` (stereo partly drawn) [beta-AMYRIN], 0.901.
Compound `O=C1[C@H](CCC(O)c2ccc(F)cc2)[C@@H](c2ccc(O)cc2)N1c1ccc(F)cc1` (stereo partly specified) returned a relative growth of 1.16.
`OC[C@@H](O)[C@H](O)[C@@H](O)[C@H](O)CO` gave a relative growth of 0.949.
To `CN(C)CC(=O)N[C@@H]1CC[C@@H](CCNS(=O)(=O)c2ccccc2)O[C@H]1CO` belongs 1.14.
`C[C@@H]1CN([C@H](C)CO)S(=O)(=O)c2ccc(C#CCC3CCCC3)cc2O[C@@H]1CN(C)C(=O)c1cnccn1`: the relative growth came to 0.683.
With `COc1ccccc1NC(=O)N(C)C[C@@H]1Oc2ncc(Br)cc2C(=O)N([C@H](C)CO)C[C@@H]1C`, the relative growth came out at 1.
In the case of `C(=N\c1nnc2nc[nH]n12)/c1ccco1`, the relative growth was found to be 1.17.
For `C=CCSCC1Nc2cc(Cl)c(S(N)(=O)=O)cc2S(=O)(=O)N1` (stereo unspecified) the value was 1.09; for `COCCNC(=O)C[C@H]1CC[C@@H](NS(=O)(=O)c2ccc(C)cc2)[C@H](CO)O1`, 0.984; for `CS(=O)(=O)c1nnc(N)s1`, 0.951.
To `COC(=O)c1c(CC[C@@H](CO)NC(=O)N2CCC[C@H]2Cn2cc(-c3ccccn3)nn2)oc(C(C)=O)c1C(=O)OC` belongs 0.947; to `NC(=O)c1cccc(N)c1`, 1.04.
To `O=C(C[C@H]1CC[C@H]2[C@@H](COC[C@@H](O)CN2S(=O)(=O)c2ccc(F)cc2)O1)N1CCc2ccccc2C1` belongs 0.883.
Turning to `NC[C@H](c1ccccc1)N1CCOCC1`, the relative growth stood at 0.947.
Compound `COc1ccc(NC(=O)Nc2ccc3c(c2)[C@H]2C[C@H](CC(=O)NCc4ccccn4)O[C@H](CO)[C@H]2O3)cc1` had a relative growth of 1.04.
`NCC[C@H]1CC[C@@H](NC(=O)Nc2ccc(F)cc2)[C@H](CO)O1` came in with a relative growth of 1.1.
To `CO[C@H]1O[C@H](CO)[C@@H](OC(=O)Nc2ccc3c(c2)OCO3)[C@H](OC(=O)Nc2ccc3c(c2)OCO3)[C@@H]1OC(=O)Nc1ccc2c(c1)OCO2` belongs 1.08.
In turn, `CC(=O)O[C@H]1[C@H](Oc2cc(O)cc(O)c2C(=O)c2cc(O)cc(O)c2)O[C@H](CO)[C@@H](OC(=O)c2ccccc2)[C@@H]1O` yielded a relative growth of 0.957.
As to `C=CCOC(=O)[C@H]1[C@@H]2C(=O)O[C@@H](c3ccccc3)[C@@H](c3ccccc3)N2[C@@H](c2ccc(OCCOC(=O)[C@@H]3C[C@@H]4C(=O)N5CCC[C@H]5C(=O)N4[C@@H]3c3cccc(OCCO)c3)cc2)[C@]12C(=O)Nc1ccc(I)cc12`, the relative growth worked out at 0.955.
For `O=C1CNC(=S)N1c1ccccc1` the value was 0.985.
The compound `N#CCC(=O)Nc1ccncc1` had a relative growth of 0.824.
For `CCCNC(=O)Nc1ccc2c(c1)C(=O)N(C)C[C@@H](OC)[C@@H](C)CN(Cc1ccc(-c3ccccn3)cc1)[C@@H](C)CO2`, the relative growth came out at 1.18.
The compound `O=C(NCCCO)c1cc2ccccc2oc1=O` returned a relative growth of 0.928.
With `COc1cccc(NC(=O)N2C[C@H](O)COC[C@H]3O[C@H](CC(=O)NCCCN4CCOCC4)CC[C@@H]32)c1`, the relative growth came to 1.14.
`O=C(C[C@H]1CC[C@H]2[C@@H](COC[C@@H](O)CN2S(=O)(=O)c2ccc(Oc3ccccc3)cc2)O1)NC1CCC1` registered a relative growth of 1.02.
With `Nc1cnn([C@H]2O[C@@H](COC(=O)c3ccccc3)[C@@H](O)[C@@H]2O)c(=O)n1`, the relative growth is 1.11.
For the compound `c1ccc(CN(CC2=NCCN2)c2ccccc2)cc1`, the relative growth is 1.16.
In turn, `C[C@@H]1CN([C@H](C)CO)S(=O)(=O)c2ccc(C#CC3CC3)cc2O[C@H]1CN(C)Cc1ccccc1F` showed a relative growth of 1.4.
Take `COc1cccc(-c2ccc3c(c2)O[C@H](CN(C)C(=O)C2CCC2)[C@H](C)CN([C@H](C)CO)S3(=O)=O)c1`: the relative growth is 0.736.
The compound `Cl.NC(N)=NC(=O)Cc1c(Cl)cccc1Cl` showed a relative growth of 0.819.
On to `Cc1ccc(S[C@]2(C(=O)NCc3ccccc3)CC(=O)N(C3Cc4ccccc4C3)[C@@H]2c2ccc(CO)cc2I)cc1`, for which the relative growth came to 0.993.
Turning to `CC(C)NC(=O)[C@@H]1c2ccccc2C(=O)N(Cc2cc(C(F)(F)F)cc(C(F)(F)F)c2)[C@H]1c1ccc(CO)cc1`, the relative growth was determined as 0.71.
Consider `COc1cc(/C=C/C(=O)N2CCCCCCC2)cc(OC)c1OC`, for which the relative growth turned out to be 0.998.
Compound `O=C1O[C@@H](CO)[C@H](O)[C@@H](O)[C@@H]1O` registered a relative growth of 1.16.
